Tests used:
[1] = Plasma pharmacokinetics after oral TID/BID dosing, fasted or fed, in human subjects with acute leukemia
[2] = Safety: dose-limiting toxicity and treatment-related adverse events in Examples 1 and 2; settings: in more than 10% of the subjects

| Compound | drug exposure, fed BID group versus fasted TID group ([1]; 600 mg BID fed (1200 mg/day) vs 600 mg TID fasted (1800 mg/day)) | grade 3 or higher treatment-related adverse events [2] | exposure versus dose ([1]; 100 to 1000 mg per dose TID, oral) |
| --- | --- | --- | --- |
| O=C(Cc1cccc(OC(F)(F)F)c1)Nc1ccc(CCCCc2nnc(NC(=O)Cc3ccccn3)s2)nn1 [compound of formula III] | each group had the same amount of drug exposure |  |  |
| O=C(Cc1cccc(OC(F)(F)F)c1)Nc1ccc(CCCCc2nnc(NC(=O)Cc3ccccn3)s2)nn1 [CB-839] |  | No grade 3 or higher adverse events were considered treatment-related in more than 10% of the subjects | increase in exposure was demonstrated with increasing dose |

Reference: patent US20160287564A1, “METHODS OF ADMINISTERING GLUTAMINASE INHIBITORS” (Calithera Biosciences, Inc., priority 2015, published 2016)
